Laboratory results published in PMC7125024 (ChemMedChem, 2020).

The chains behind the UniProt entries cited, without tags or fusion partners.
UniProt P27338, whole entry: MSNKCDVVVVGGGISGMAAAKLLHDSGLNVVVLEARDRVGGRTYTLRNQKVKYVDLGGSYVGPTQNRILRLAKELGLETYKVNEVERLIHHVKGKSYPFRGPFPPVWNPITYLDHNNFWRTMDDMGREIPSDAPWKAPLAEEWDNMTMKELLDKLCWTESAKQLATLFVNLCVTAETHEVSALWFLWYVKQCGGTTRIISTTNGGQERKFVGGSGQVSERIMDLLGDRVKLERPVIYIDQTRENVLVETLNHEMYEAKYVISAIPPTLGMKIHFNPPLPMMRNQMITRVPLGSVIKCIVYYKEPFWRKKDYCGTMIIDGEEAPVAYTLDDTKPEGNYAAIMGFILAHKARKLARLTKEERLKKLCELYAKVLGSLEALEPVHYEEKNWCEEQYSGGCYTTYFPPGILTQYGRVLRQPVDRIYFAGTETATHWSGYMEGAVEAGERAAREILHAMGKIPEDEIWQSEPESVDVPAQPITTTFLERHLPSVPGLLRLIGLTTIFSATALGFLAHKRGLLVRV
UniProt P21397, whole entry: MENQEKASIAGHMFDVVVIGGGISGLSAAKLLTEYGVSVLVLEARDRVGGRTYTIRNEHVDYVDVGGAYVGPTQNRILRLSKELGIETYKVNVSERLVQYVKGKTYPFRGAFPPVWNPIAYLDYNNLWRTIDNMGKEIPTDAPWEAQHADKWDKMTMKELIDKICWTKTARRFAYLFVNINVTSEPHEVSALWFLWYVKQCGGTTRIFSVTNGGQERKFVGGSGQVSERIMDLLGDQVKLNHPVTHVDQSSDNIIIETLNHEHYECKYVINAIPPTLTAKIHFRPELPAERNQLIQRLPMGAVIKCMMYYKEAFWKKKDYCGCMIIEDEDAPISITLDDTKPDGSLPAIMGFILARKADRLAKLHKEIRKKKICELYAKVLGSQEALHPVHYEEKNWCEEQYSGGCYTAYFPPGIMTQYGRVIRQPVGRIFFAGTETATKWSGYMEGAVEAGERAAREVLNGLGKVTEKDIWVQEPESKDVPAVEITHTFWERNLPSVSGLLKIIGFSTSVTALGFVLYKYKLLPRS

Experiments:
human MAO B = human MAO B (Homo sapiens, UniProt P27338); test: Anti-MAO assay; format: biochemical; conditions: NI = no inhibition
human MAO A = human MAO A (Homo sapiens, UniProt P21397); conditions: added for comparison, ref [13b], [19]; cited from earlier work

| SMILES | % inhibition at 100 μM MAO B (human MAO B) | % inhibition at 100 μM MAO A (human MAO A) |
| --- | --- | --- |
| N[C@@H]1C[C@H]1c1ccccc1 (racemic) [TCP, tranylcypromine, reference compound] | 85% |  |
| NC1CC1c1ccc(NC(=O)C(Cc2ccccc2)NC(=O)OCc2ccccc2)cc1 (centres unmarked) [2a] |  | 94% |
